Assays:
[1] = target: T1, human α7 nAChR (Homo sapiens, UniProt P36544); assay type: cell-based
[2] = test system: human α7 nAChR; assay type: cell-based
[3] = test system: human α7 nAChR; details: MLA 100 nM; 10 μM ACh + 1 μM PNU-120596; n = 3
[4] = test system: human α7 nAChR; assay type: cell-based; details: n = 15, N = 3
[5] = target: T1, human α7 nAChR; assay type: cell-based; remark: listed apart in the source
[6] = target: T1, human α7 nAChR; assay: cell-based
[7] = target: T1, human α7 nAChR; assay type: cell-based; remark: listed apart in the source

The chains behind the UniProt entries cited, without tags or fusion partners. Residues count along the entry.
UniProt P36544, 23-502: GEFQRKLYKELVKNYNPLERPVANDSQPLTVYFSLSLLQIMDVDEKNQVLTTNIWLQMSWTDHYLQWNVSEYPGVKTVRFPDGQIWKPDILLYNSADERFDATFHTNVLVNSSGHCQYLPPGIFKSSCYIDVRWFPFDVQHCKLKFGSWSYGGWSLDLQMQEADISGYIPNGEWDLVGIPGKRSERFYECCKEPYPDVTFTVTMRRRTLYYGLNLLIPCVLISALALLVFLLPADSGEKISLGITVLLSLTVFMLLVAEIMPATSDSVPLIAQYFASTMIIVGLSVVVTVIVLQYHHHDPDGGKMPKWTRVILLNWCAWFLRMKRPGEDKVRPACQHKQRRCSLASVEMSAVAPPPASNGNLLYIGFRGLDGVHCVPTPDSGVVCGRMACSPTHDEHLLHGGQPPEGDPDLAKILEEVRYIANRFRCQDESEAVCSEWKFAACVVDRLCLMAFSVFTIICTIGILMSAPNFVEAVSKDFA

## Oc1ccc2[nH]ccc2c1 [5-HI, 5-hydroxyindole]
[1]
  increase of duration of slowest open component by PAM: fourfold longer
  increase of mean burst duration by PAM: eightfold longer

## CC(=O)OCC[N+](C)(C)C [ACh, Acetylcholine]
[2]
  macroscopic current response evoked by ACh: robust responses

## CCN1C[C@]2(COC(=O)c3ccccc3N3C(=O)C[C@H](C)C3=O)CC[C@H](OC)[C@@]34[C@@H]5C[C@H]6[C@H](OC)[C@@H]5[C@](O)(C[C@@H]6OC)[C@@](O)([C@@H](OC)[C@H]23)[C@@H]14 [MLA, methyllycaconitine]
[3]
  effect on duration of clusters or bursts: No reduction in the duration of clusters or bursts

## COc1cc(OC)c(NC(=O)Nc2cc(C)on2)cc1Cl [PNU-120596, N-(5-Chloro-2,4-dimethoxyphenyl)-N’-(5-methyl-3-isoxazolyl)-urea]
[4]
  macroscopic currents of either compound on its own: neither Y674-R685 nor PNU-120596 on their own elicited currents

## C[C@H](NC(=O)[C@H](CCCNC(=N)N)NC(=O)[C@H](CCCNC(=N)N)NC(=O)[C@@H]1CCCN1C(=O)[C@H](CO)NC(=O)[C@H](CC(N)=O)NC(=O)[C@@H](NC(=O)[C@H](CCC(N)=O)NC(=O)[C@@H](NC(=O)[C@H](CCC(N)=O)NC(=O)[C@@H](N)Cc1ccc(O)cc1)[C@@H](C)O)[C@@H](C)O)C(=O)N[C@@H](CCCNC(=N)N)C(=O)O [Y674-R685]
[5]
  reduction of cluster duration: 78%
[6]
  IC50: 1800 ± 800 nM
  IC50 range in words: low-micromolar range
[7]
  reduction of maximal currents elicited by ACh (Imax): 30 ± 4%
